# Ab-95 light chain CDR variants: yeast mating affinities

Target: peptide PDVDLGDISGINAS, taken from heptad repeat 2 (HR2) of SARS-CoV-2 spike.

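The parent was found by panning a naive human phage display library on the peptide. In library AAYL52, one, two or three CDR residues were substituted; doubles and triples were drawn at random. The assay is AlphaSeq: two haploid yeast populations carry antibody and antigen on their surface. The frequency of each diploid, read from paired DNA barcodes, reflects how well the two displayed proteins bind. Scores were corrected for input abundance and mapped to Kd with protein pairs of known affinity run in the same pool. There are three technical replicates.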

Each scFv is VH, a 15-residue (Gly4Ser)3 linker, VL, as in the parent Ab-95, and differs from it in the CDRs of the light chain only.
VH: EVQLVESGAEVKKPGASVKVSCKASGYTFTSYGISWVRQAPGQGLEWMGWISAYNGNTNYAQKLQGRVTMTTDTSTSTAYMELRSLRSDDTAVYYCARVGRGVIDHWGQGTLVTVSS
VL: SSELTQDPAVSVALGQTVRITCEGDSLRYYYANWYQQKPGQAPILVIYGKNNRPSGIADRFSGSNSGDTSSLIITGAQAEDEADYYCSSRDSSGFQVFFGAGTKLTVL

Changes read parent residue, position, new residue, counted from the first residue of the VL shown.
Every variant below is changed at D91 of the VL (sequential numbering).
Affinities are written as log10 Kd with Kd in nM; a lower number is a better binder.
Averages over replicates are reported, and they cover detected replicates only.
A pair that was not seen in that replicate is written "nd"; this usually means weak binding, but a binder can also be missed.
Parent in this assay: reference entry 2.31, copy in this library 2.25.
Empty control strains, which show no peptide, gave a signal in 28% of pairings with library AAYL52; the median was 3.91 and 95% of these signals were weaker than 2.90. No background was subtracted.

The variant N51Q R53K D91E gave 4.67, 3.86, nd (mean 4.26).
The variant Y30W S88T D91P gave 4.40, 4.72, nd (mean 4.56).
The variant S26Q K50N D91E gave 4.57, 2.83, 3.35 (mean 3.58).
The variant G49D R53M D91L gave nd, nd, nd.
The variant E23H L27E D91G gave nd, nd, nd.
The variant P54V D91T Q96V gave 3.13, 4.95, nd (mean 4.04).
The variant D25Q N51V D91C gave nd, 3.83, 3.23 (mean 3.53).
The variant E23G N51C D91C gave 4.26, nd, nd.
The variant A32I S88W D91V gave nd, nd, 3.95.
The variant R28A R90G D91P gave 2.91, 3.49, 3.00 (mean 3.14).
The variant K50C S88D D91S gave nd, nd, nd.
The variant Y30F D91V F98H gave 4.64, 3.33, nd (mean 3.99).
The variant G49T P54A D91W gave 5.06, nd, 3.25 (mean 4.16).
The variant K50Q R53Q D91Y gave nd, nd, nd.
The variant G24N D91C gave nd, 4.78, nd.
The variant D91N S92I F98P gave 2.42, 2.34, 2.03 (mean 2.26).
The variant G49P D91E F98R gave 4.98, nd, nd.
The variant A32G P54C D91E gave 3.08, nd, nd.
The variant D91I S93K V97E gave nd, nd, nd.
The variant E23R D91H V97A gave 2.66, 3.04, 2.58 (mean 2.76).
The variant Y29M S88L D91E gave 4.01, nd, nd.
The variant G24C N52Q D91K gave 2.60, 2.90, 2.61 (mean 2.70).
The variant E23R D91P gave 2.42, 2.91, 1.98 (mean 2.44).
The variant G24E D91I gave nd, nd, nd.
The variant Y29G D91V gave 5.43, nd, nd.
The variant A32V S88W D91M gave 4.57, 4.04, 3.89 (mean 4.17).
The variant D91C gave nd, nd, nd.
The variant A32H P54F D91K gave nd, nd, nd.
The variant N52K D91W F98K gave 2.97, nd, nd.
The variant N51E D91P gave nd, nd, nd.

The measurements come from Engelhart et al. 2022 (doi:10.1038/s41597-022-01779-4) through the FLAb antibody collection.